This test deals with empty AAV9 capsid (adeno-associated virus 9) (adeno-associated virus 9) (UniProt Q6JC40).

Chains of the proteins cited; added tags and fusions are not shown. Residues count along the entry.
UniProt P02745, 23-245: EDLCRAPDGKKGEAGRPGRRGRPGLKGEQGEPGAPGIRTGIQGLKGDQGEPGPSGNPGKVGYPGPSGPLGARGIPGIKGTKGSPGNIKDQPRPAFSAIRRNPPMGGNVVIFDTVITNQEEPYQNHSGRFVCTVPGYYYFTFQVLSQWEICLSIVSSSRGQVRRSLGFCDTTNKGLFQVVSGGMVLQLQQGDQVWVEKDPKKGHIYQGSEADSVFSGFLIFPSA
Complement C1q (subcomponent subunits A, B and C), UniProt P02746, 28-253: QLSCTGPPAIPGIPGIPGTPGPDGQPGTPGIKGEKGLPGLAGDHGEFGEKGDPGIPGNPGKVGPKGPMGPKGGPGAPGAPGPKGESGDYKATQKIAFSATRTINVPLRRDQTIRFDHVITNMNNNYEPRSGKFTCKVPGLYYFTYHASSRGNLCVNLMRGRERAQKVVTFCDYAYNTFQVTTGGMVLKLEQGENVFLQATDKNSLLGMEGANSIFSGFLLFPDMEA
Complement C1q (subcomponent subunits A, B and C), UniProt P02747, 29-245: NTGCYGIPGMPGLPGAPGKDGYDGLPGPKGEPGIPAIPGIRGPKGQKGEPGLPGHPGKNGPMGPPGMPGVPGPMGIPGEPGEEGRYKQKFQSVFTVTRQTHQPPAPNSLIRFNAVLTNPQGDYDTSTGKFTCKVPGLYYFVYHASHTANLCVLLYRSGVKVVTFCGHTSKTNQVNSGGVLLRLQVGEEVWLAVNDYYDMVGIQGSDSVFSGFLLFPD

Results on 1 substance are retold here after article PMC10282828.

Substance “Complement C1q (subcomponent subunits A, B and C) (from UniProt P02745 23-245; P02746 28-253; P02747 29-245) (complex)” displayed a C3a generation (complement activation, C3a ELISA kit) after incubation of AAV9 capsids with complement activating sera of nine seropositive subjects of 10600 ng/mL and a C3a generation (complement activation, C3a ELISA kit) after incubation of AAV9 capsids with the same sera depleted of IgG/IgM of 1530 ng/mL.
